Reference: ChEMBL document CHEMBL1255447, “Efflux pumps, OprD porin, AmpC beta-lactamase, and multiresistance in Pseudomonas aeruginosa isolates from cystic fibrosis patients” (2010)

Assays:
Pseudomonas aeruginosa [1] = settings: isolate 13120
Pseudomonas aeruginosa [2] = settings: M1251
Pseudomonas aeruginosa [3] = settings: 2779-con

Measured: MIC

GENTAMICIN
0.5 µg/mL: all assays above
